Columns and labels:
CD11a/CD18+CD40 = CD11a/CD18+CD40 (Homo sapiens, UniProt P25942); test: KinExA solution phase assay, KGYY15 with CD11a/CD18+CD40; type: binding; conditions: CD11a/CD18+CD40 vs CD40 alone
CD11b/CD18+CD40 = CD11b/CD18+CD40 (Homo sapiens, UniProt P25942); test: KinExA solution phase assay, KGYY15 with CD11b/CD18+CD40; type: binding; conditions: CD11b/CD18+CD40 vs CD40 alone

Sequences of proteins named here, by UniProt entry; tags and fusion partners are left off. Residues count along the entry.
UniProt P25942, 21-193 limits assumed: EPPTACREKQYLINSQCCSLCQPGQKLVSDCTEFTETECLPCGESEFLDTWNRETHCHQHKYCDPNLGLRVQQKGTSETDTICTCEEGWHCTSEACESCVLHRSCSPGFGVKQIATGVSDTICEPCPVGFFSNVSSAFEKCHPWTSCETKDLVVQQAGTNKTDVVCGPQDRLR

CSCC[C@H](NC(=O)[C@@H](NC(=O)[C@H](Cc1ccc(O)cc1)NC(=O)[C@H](Cc1ccc(O)cc1)NC(=O)CNC(=O)[C@H](CCCCN)NC(=O)[C@H](CCCCN)NC(=O)[C@H](C)NC(=O)[C@H](Cc1c[nH]c2ccccc12)NC(=O)[C@H](CCC(N)=O)NC(=O)[C@H](CC(C)C)NC(=O)[C@@H](N)C(C)C)[C@@H](C)O)C(=O)N[C@@H](CCCCN)C(=O)N[C@@H](CO)C(=O)N[C@@H](CC(N)=O)C(=O)O [KGYY15]
Kd relative to CD40 alone (times higher) (CD11a/CD18+CD40): 1.5 times | Kd relative to CD40 alone (times lower) (CD11b/CD18+CD40): 15 times

From PMC10141526 (The Journal of Biological Chemistry, 2023)
